{"source": "patent US20240083839A1", "about": "“COMPOSITIONS AND METHODS FOR TREATING NEURODEGENERATIVE DISEASES AND DISORDERS” (The Regents of the University of California, priority 2020, published 2024)", "tested_on": "E4-AD mice", "assay": "Oral treatment of ApoE4-expressing AD model mice (NOR, brain SirT1)", "type": "in vivo, mouse", "conditions": "56 days (A03 40 mg/kg/day)", "procedure": "Prompted by the emerging importance of the associations between ApoE4 and the expression/protein levels of SirT1, high-throughput screening (HTS) of the UCLA compound library was performed using AlphaLISA to detect SirT1 levels in murine neuroblastoma cells stably transfected with ApoE4 (E4-N2a) to identify SirT1 enhancers. […] A03 was also found to be efficacious in vivo, eliciting cognitive improvement and enhancing SirT1 in a murine ApoE4-expressing AD model. In the in vivo study, mice were treated orally at 40 mkd (20 mg/kg BID) for 56 days and underwent assessment of cognition in the Novel Object Recognition (NOR) testing paradigm. […] The performance of A03-treated E4-AD mice (FIG. 5A) improved to level of non-transgenic vehicle-treated mice.", "data": [{"smiles": "CC(N)C(=O)OC(C)(C)Cc1ccc(Cl)cc1", "note": "(centres unmarked) [A03, alaproclate]", "values": [{"measurement": "Novel Object Recognition discrimination index / cognition", "result": "significantly greater discrimination index"}, {"measurement": "SirT1 in hippocampi", "result": "significantly higher"}]}]}
